Literature values as cited in patent US20250154129A1, “CRYSTALLINE PHARMACEUTICALLY ACCEPTABLE SALT AND POLYMORPHIC FORM OF THE GLUTAMINYL CYCLASE INHIBITOR VAROGLUTAMSTAT” (VIVORYON THERAPEUTICS N.V., priority 2023, published 2025).

Test system: extracellular amyloid-β plaques in the brain
Settings: early AD patients; time- and dose-dependent; cited from earlier work

For “aducanumab: monoclonal IgG1 antibody that targets extracellular amyloid-β plaques in the brain”, the Aβ deposits is given as “persistent reductions”.
